Four substances from US10385089B2, “Thionucleoside derivative or salt thereof, and pharmaceutical composition” (FUJIFILM Corporation, priority 2014, dated 2019) can be followed below.

The assay relates to gemcitabine-resistant strain of pancreatic cancer cell line Capan-1 (ATCC Number: HTB-79). The assay is described as follows: Gemcitabine-resistant cell growth inhibition test (CellTiter Glo, total cellular ATP). Particulars: read-out: Growth inhibitory activity IC50 (μmol/L); gemcitabine-resistant Capan-1, 72 hours of culture, CellTiter Glo luminescence.

This is a selection: effects in other tests are not listed, and their absence says nothing. Where only a bound is given, the exact number is not on record here.

In the case of “((2R,3S,4S,5R)-5-(4- amino-2-oxopyrimidin- 1(2H)-yl)-4-fluoro-3- hydroxytetra hydrothiophen-2-yl) methyl bis(2-((2-acetoxyethyl) disulfanyl)ethyl) phosphate”, the IC50 fell in the range of 5 to 15 µmol/L.

Turning to “((2R,3S,4S,5R)-5-(4- amino-2-oxopyrimidin- 1(2H)-yl)-4-fluoro- 3-hydroxytetra hydrothiophen-2-yl) methyl bis(2-((2- isobutyroyloxyethyl) disulfanyl)ethyl) phosphate”, the IC50 fell in the range of 2 to 5 µmol/L.

As for “((2R,3S,4S,5R)-5- (4-amino-2- oxopyrimidin-1(2H)- yl)-4-fluoro-3- hydroxytetra hydrothiophen-2-yl) methyl bis(2-((2- (benzyloxy)ethyl) disulfanyl)ethyl) phosphate”, the IC50 is under 2 µmol/L.

“4-amino-1-((2R,3S,4S,5R)-3- fluoro-4-hydroxy-5-((((RS)-2- oxido-4H-benzo[d][1,3,2] dioxaphoshinin-2-yl)oxy)methyl) tetrahydrothiophen-2-yl) pyrimidin-2(1H)-one”: the IC50 fell in the range of 2 to 5 µmol/L.
